{
  "source": "PubChem BioAssay (Tox21)",
  "note": "The list shows a part of the results, in another mix than the full data. Records with an inconclusive call do not appear. The source made the active and inactive calls. Calls come from the whole dose curve; as a rule, active = well fitted activation curve with a large enough effect in the repeat runs; inconclusive = weak or mixed curves; inactive = flat fitted curve, though single readings scatter. % is set by controls: 0 for no effect and ±100 for the full control effect; potency is the fitted concentration of half-maximal effect.",
  "data": [
    {"assay": "A CellTox Green Cytotoxicity Assay to monitor cytotoxicity in HepG2 cells - 40 hour (AID 1224879); note: nearly all actives have a fitted effect of over 40% in size", "settings": "CellTox Green fluorescence; series mostly up to 76.8 µM; cytotoxicity increase: at the top concentration", "excerpt": "National Center for Advancing Translational Sciences [NCATS]\nNIH Chemical Genomics Center [NCGC]\nU.S. Environmental Protection Agency [EPA]\nNational Institutes of Environmental Health Sciences [NIEHS]\nNational Toxicology Program [NTP]\nCell-based models are critical for drug discovery. Determining the natural cytotoxic effects resulting from test compounds is an essential research activity. A CellTox Green Cytotoxicity Assay to monitor cytotoxicity in real time of continues cell culture during 40 hours of the compound treatment was used to screen Tox21 10K library compounds in HepG2 cells. CellTox Green Cytotoxicity Assay is a nonlytic, homogeneous, biofluorescent method to measure cytotoxicity in cell culture after experimental manipulation. The assay system uses a proprietary asymmetric cyanine dye that is excluded from viable cells but preferentially stains the dead cell's DNA. […] Viable cells produce no appreciable increases in fluorescence. Therefore, the fluorescence signal produced by the binding interaction with dead cell DNA is proportional to cytotoxicity.\nThe mixture of HepG2 cell suspension and reagents were dispensed at 600cells/6 ul/well in 1536-well tissue culture treated black solid bottom plates using a Multidrop dispenser. After the assay plates were incubated at a 37 C/5% CO2 incubator for 5 hours, 23 nL of compounds dissolved in DMSO, positive and negative controls was transferred to the assay plate by a pintool work station. The plates were incubated at 37 C for 40 hours. The fluorescence intensity were measured at 0h, 8h, 16h, 24h, 32h and 40h time points using ViewLux plate reader during compound treatment.", "values": [
      {"smiles": "NC(=O)Nc1ccc([As](=O)(O)O)cc1", "Potency": "inactive"},
      {"smiles": "CC(C)OP(=S)(OC(C)C)SCCNS(=O)(=O)c1ccccc1", "cytotoxicity increase": "inactive: 4.48%"},
      {"smiles": "O=C(Cl)OCCOC(=O)Cl", "cytotoxicity increase": "inactive: -6.47%"},
      {"smiles": "CN(C(=O)Cc1ccccc1)[C@H]1CC[C@@]2(CCCO2)C[C@@H]1N1CCCC1", "cytotoxicity increase": "inactive: 17.3% [at 35.3 µM]"},
      {"smiles": "CN(N=O)C(=N)N[N+](=O)[O-]", "cytotoxicity increase": "inactive: 16.3%"},
      {"smiles": "CCCCC(CC)CO[P+](=O)OCC(CC)CCCC", "note": "(centres undefined)", "cytotoxicity increase": "inactive: 7.23%"},
      {"smiles": "CCC(C)(OOC(C)(C)C)OOC(C)(C)C", "cytotoxicity increase": "inactive: -26% [at 15.8 µM]"},
      {"smiles": "COC(=O)Cl", "cytotoxicity increase": "inactive: -0.979%"},
      {"smiles": "ClP(Cl)c1ccccc1", "cytotoxicity increase": "inactive: -11.5%"},
      {"smiles": "CCCCO[P+](=O)OCCCC", "Potency": "inactive"},
      {"smiles": "O=[N+]([O-])c1ccc([N+](=O)[O-])cc1", "cytotoxicity increase": "inactive: -35.1%"},
      {"smiles": "CN(C(=O)Cc1cccc2occc12)[C@H]1CC[C@@]2(CCCO2)C[C@@H]1N1CCCC1", "cytotoxicity increase": "inactive: -1.47%"},
      {"smiles": "CN(C(=O)Cc1ccc(Cl)c(Cl)c1)[C@H]1CC[C@@]2(CCCO2)C[C@@H]1N1CCCC1", "cytotoxicity increase": "inactive: 8.1% [at 35.3 µM]"},
      {"smiles": "CCNC(C)Cc1ccc2c(c1)OCO2", "note": "(centres undefined)", "cytotoxicity increase": "inactive: -0.469%"},
      {"smiles": "O=C(Cl)Oc1ccccc1", "cytotoxicity increase": "inactive: -9.1%"},
      {"smiles": "O=[P+](Oc1ccccc1)Oc1ccccc1", "cytotoxicity increase": "inactive: -4.84%"},
      {"smiles": "O=[N+]([O-])c1ccc(S(=O)(=O)O)c([N+](=O)[O-])c1", "cytotoxicity increase": "inactive: -9.03%"},
      {"smiles": "CC(C)CCCCCCCOP(OCCCCCCCC(C)C)Oc1ccccc1", "Potency": "active: 61.6 µM"},
      {"smiles": "CCOP(=S)(CC)Sc1ccccc1", "note": "(centres undefined)", "cytotoxicity increase": "inactive: -6.84%"},
      {"smiles": "O=[p+]1oc2ccccc2c2ccccc21", "note": "(centres undefined)", "cytotoxicity increase": "inactive: 3.81%"},
      {"smiles": "O=P(Cl)(Oc1ccccc1)Oc1ccccc1", "cytotoxicity increase": "inactive: -8.18%"},
      {"smiles": "Cc1cc([N+](=O)[O-])c(O)c([N+](=O)[O-])c1", "cytotoxicity increase": "inactive: -7.5%"},
      {"smiles": "CCCCOP(OCCCC)OCCCC", "cytotoxicity increase": "inactive: -16.4%"},
      {"smiles": "O=P(Cl)(Cl)c1ccccc1", "cytotoxicity increase": "inactive: -13.6%"}
    ]}
  ]
}
